Laboratory results reported in ChEMBL document CHEMBL5537184, “Discovery, Optimization, and Evaluation of Novel Pyridin-2(1H)-one Analogues as Potent TRK Inhibitors for Cancer Treatment” (J Med Chem, 2024).

Sequences of proteins named here, by UniProt entry; tags and fusion partners are left off. A change or cut given only in a name is not applied to a line headed by its entry.
UniProt P04629: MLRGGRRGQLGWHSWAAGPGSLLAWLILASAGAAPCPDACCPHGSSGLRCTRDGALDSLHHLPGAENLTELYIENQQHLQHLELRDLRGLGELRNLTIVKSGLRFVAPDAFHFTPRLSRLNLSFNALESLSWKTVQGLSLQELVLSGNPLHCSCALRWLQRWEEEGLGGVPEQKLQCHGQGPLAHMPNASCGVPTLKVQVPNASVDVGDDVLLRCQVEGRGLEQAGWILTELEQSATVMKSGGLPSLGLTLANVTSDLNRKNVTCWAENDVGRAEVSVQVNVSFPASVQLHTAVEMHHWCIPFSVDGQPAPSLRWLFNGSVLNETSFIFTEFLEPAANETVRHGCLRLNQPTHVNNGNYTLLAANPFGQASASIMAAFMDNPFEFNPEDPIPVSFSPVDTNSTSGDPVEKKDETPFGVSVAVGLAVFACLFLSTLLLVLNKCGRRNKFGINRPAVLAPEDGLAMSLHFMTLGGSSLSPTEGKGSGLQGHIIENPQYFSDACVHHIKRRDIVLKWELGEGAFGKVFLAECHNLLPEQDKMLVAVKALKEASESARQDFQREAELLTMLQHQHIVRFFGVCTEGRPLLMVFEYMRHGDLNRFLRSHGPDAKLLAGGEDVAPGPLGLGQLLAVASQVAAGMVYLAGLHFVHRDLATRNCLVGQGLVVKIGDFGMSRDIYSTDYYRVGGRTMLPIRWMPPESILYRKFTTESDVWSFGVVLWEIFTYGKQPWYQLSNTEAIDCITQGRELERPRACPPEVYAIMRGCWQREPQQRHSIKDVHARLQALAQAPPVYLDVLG

Tests used:
[1] = target: High affinity nerve growth factor receptor (Homo sapiens) (UniProt P04629); details: dose 100.0 nM
[2] = target: T1, 1-phosphatidylinositol 4,5-bisphosphate phosphodiesterase gamma-1 (Homo sapiens) (UniProt P19174); details: KM12, dose 100-1000 nM, time 2.0 hrs
T1 sequence (whole entry): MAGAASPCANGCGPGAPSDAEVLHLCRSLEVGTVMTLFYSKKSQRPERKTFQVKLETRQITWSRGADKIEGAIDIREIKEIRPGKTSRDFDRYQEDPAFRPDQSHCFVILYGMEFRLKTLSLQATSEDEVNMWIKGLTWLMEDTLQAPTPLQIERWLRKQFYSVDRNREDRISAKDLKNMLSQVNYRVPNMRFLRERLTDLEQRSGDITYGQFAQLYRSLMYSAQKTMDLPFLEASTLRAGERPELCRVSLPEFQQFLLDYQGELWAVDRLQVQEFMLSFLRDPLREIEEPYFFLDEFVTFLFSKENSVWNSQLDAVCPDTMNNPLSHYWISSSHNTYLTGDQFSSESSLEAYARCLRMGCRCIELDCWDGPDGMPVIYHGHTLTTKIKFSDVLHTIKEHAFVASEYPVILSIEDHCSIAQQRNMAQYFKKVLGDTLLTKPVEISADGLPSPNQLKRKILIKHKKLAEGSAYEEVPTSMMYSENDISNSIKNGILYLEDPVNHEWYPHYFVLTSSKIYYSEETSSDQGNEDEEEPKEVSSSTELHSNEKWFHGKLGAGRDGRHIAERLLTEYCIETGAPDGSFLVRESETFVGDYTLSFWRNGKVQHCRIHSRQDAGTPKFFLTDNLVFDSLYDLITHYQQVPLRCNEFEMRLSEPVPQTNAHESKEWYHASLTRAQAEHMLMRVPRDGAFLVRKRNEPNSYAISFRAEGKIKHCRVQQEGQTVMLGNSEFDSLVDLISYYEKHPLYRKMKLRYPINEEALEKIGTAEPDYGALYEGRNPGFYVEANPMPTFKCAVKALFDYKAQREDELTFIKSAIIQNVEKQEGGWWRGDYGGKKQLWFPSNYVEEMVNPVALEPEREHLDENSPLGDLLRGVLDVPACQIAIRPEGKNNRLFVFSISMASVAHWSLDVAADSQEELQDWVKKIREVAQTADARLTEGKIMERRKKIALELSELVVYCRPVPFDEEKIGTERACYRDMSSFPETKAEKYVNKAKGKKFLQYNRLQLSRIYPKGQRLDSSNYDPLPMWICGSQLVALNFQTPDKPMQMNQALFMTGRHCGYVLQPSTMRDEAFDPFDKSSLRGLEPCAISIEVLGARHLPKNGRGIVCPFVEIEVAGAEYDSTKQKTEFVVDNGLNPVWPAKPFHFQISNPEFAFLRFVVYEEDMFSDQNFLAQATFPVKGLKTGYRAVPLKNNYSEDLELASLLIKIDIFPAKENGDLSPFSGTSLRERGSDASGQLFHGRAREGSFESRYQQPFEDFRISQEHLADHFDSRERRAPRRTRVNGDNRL

Row | inhibition [1] | inhibition [2] | SMILES
1 | 11.3% |  | C[C@@H](Nc1c[nH]c(=O)c(C(=O)NC2CCOCC2)c1)c1c(Cl)ccc(F)c1Cl
2 | 1.6% |  | COc1ncc(N[C@H](C)c2c(Cl)ccc(F)c2Cl)cc1C(=O)Nc1ccc(CN2CCN(C)CC2)cc1
3 | -0.1% |  | C[C@@H](Nc1cncc(C(=O)Nc2ccc(CN3CCN(C)CC3)cc2)c1)c1c(Cl)ccc(F)c1Cl
4 | 7.4% |  | C[C@@H](Nc1c[nH]c(=O)c(C(=O)NC2CCCO2)c1)c1c(Cl)ccc(F)c1Cl (stereo partly drawn)
5 | -1.8% |  | C[C@@H](Nc1c[nH]c(=O)c(C(=O)NCCN2CCOCC2)c1)c1c(Cl)ccc(F)c1Cl
6 | 7% |  | CNC(=O)c1cc(N[C@H](C)c2c(Cl)ccc(F)c2Cl)c[nH]c1=O
7 | 46% |  | C[C@@H](Nc1c[nH]c(=O)c(C(=O)Nc2cccc(F)c2)c1)c1c(Cl)ccc(F)c1Cl
8 | 30.6% |  | C[C@@H](Nc1c[nH]c(=O)c(C(=O)NCc2ccccc2)c1)c1c(Cl)ccc(F)c1Cl
9 | 9.4% |  | C[C@@H](Nc1c[nH]c(=O)c(C(=O)NC2CCN(C)CC2)c1)c1c(Cl)ccc(F)c1Cl
10 | 29.4% |  | C[C@@H](Nc1c[nH]c(=O)c(C(=O)Nc2ccc(C(C)(C)C)cc2)c1)c1c(Cl)ccc(F)c1Cl
11 | -8.6% |  | C[C@@H](Nc1c[nH]c(=O)c(C(=O)NCCCN2CCOCC2)c1)c1c(Cl)ccc(F)c1Cl
12 | 16% |  | C[C@@H](Nc1c[nH]c(=O)c(C(=O)NC2CCCCC2)c1)c1c(Cl)ccc(F)c1Cl
13 |  | Dose-Dependent Effect | C[C@@H](Nc1c[nH]c(=O)c(C(=O)Nc2ccc(CN3CCN(C)CC3)cc2)c1)c1c(Cl)ccc(F)c1Cl
